Measured values: patent publication US20050132430A1, “Igamete recruitment and developmental competence in mammals by inhibiting the de-nova sterol biosynthesis and/or promoting sterol efflux” (priority 2001, published 2005)

Legend:
[1] = test system: de novo cholesterol biosynthesis; assay: Radio-tracing of 3H from acetic acid into free cholesterol in COC cultures; format: cell-based, mouse; conditions: pooled COC cultures
Procedure: DPM on the ordinate axis indicate the radioactivity measured by the scintillation detector after correction for counting efficiency and purification efficiencyby the HPLC method. N denotes the total number of COCs extracted for cholesterol isolation by HPLC.
Prepubertal C57 black×DBA 2 F1 female mice (M&B A/S, Ry, Denmark) were stimulated to super-ovulation (11 a.m. at day 0) by i.p. injections of 12 IU Menogon® (Ferring, Denmark) in 200 μL H2O as in examples 1 and 2. Oocytes from preovulatory follicles were retrieved from the ovaries 46 hours after by puncturing the pre-ovulatory follicles of the ovaries with 0.20 mm needles when ovaries were immersed in a culture medium (α-MEM 22571-020, Gibco BRL, Scotland) supplemented with 4 mM hypoxanthine (see below). […] The statin Compactin (Sigma, Sigma-Aldrich, Denmark,) was added in 50 mM in DMSO (final concentration of DMSO in cultures were 1% v/v in all set-ups including controls) and recombinant human follicular stimulating hormone (Gonal-F, Serono, DK) was added to a final concentration of 7.5 IU/L. After 22 hours of culture oocytes were scored for the presence of germinal vesicles (GV), germinal vesicle breakdown (GVB) and presence of polar bodies (PB). […]

[2] = test system: mouse cumulus enclosed oocytes (CEO); assay: IVF fertilisation of cumulus enclosed oocytes after IVM with a statin; format: cell-based; conditions: vs control oocytes
Procedure: Mouse oocytes were isolated and cultured according to descriptions in example 3 but for a single deviation in that the IVM culture medium was further supplemented with 1 mg/mL Fetuin (Sigma F-3385, Sigma, U.S.A.). The CEOs were divided into three groups and cultured in dishes containing medium added either 1% (v/v) ethanol (control), recombinant human follicular stimulating hormone (Gonal-F, Serono, DK) at a concentration of 7.5 IU/L together with 1% (v/v) ethanol (FSH), or 10 μM Compactin (Mevinolin M2147, Sigma-Aldrich, Denmark) with 1% (v/v) ethanol (Mevinolin). The ethanol was necessary in order to dissolve Mevinolin in the medium. […] The resulting pool of motile sperm was counted in a counting chamber and 50000 motile sperm cells was added each oocyte culture. […] These oocytes were left for another 48 hours and subsequently counted according to the maturational status of the oocyte or the progression of the fertilised zygote, i.e. GV-oocytes, GVBD-oocytes, PB-oocytes, PB^2-oocytes (oocytes with a visible second polar body), 2-cells, 3-4-cells, 4+ cells (zygotes with more than 4 blastomeres) and degenerated cells (usually granulated or cells with extensive plasma-membrane ondulation).

mouse ovaries = assay: Incubation in vitro of mouse ovaries with 3H-acetic acid, scintillation of HPLC-separated analytes; format: cell-based
Procedure: Prepubertal C57 black×DBA 2 F1 female mice (M&B A/S, Ry, Denmark) were stimulated to super-ovulation (day 0) by i.p. injections of 12 IU Menogon® (Ferring, Vanløse, Denmark) in 200 μL H2O as in examples 1-4. Ovaries were isolated 46 hours after as in example 4 and cultured in toto in α-MEM (Gibco BRL, Scotland) in presence of 0.25 mCi ^3H-acetic acid (NEN, U.S.A.). Cultures were added 0 (control) or 5 IU/ml hCG and 0 (control) or 20% FCS in combinations. 2 ovaries were incubated together in 1.0 ml medium. 22 hours after, cultures were stopped, ovaries rinsed and extracted as explained in example 3. The extracted sterols were separated by HPLC Column: ChromSpherSi 250×4.6 mm, 5 μm; mobile phase: 99.65% n-heptane (Fisher, Leicester, U.K.): 0.35% isopropanol (Baker, Deventer, NL) (vol.:vol.)), regeneration; 90% n-heptane: 10% isopropanol. Prior to straight phase sample analysis three consecutive runs of a standard mixture containing squalene, 4,4-dimethylsterols, 7-dehydrocholesterol, desmosterol, cholesterol and P4 were performed in order to tabulate time windows for collection. Window 1 (2′50″-4′00″) containing squalene, window 2 (10′30″-14′00″) containing 4,4-dimethylsterols, window 3 (25′00″-29′00″) containing cholesterol and desmosterol, window 4 (29′30″-33′00″) containing 5,7-enes and window 5 (containing P4) were collected, dried and subjected to reversed phase: LiChrospher RP-8, 5 μm, 250×4.6 mm HPLC column running in (v/v) 92.5% acetonitrile: 7.5% water at 1.00 ml/min, 40° C. Analytes were identified by UV light absorption between 200-300 nm. Squalene (Merck S21362), lanosterol (Sigma L5768), zymosterol (Steraloids C3200), lathosterol (Steraloids C7400), 7-dehydrocholesterol (Steraloids C3000), desmosterol (Steraloids C3150), cholesterol (Steraloids C6760) and P4 (Sigma P-0130) were obtained commercially, whereas FF-MAS and T-MAS standards were produced in the laboratory. All the below ranked analytes eluted as single homogeneous single peaks on the reversed phase separation. Peaks were collected, mixed with 3.0 ml scintillation fluid (Packard, NL) in scintillation vials. Countings were performed in a Beckman LS 1801 liquid scintillation counter. CPM values were corrected for counting efficiency and sample injection: […]

[3] = test system: gonadotrophin primed prepubertal mouse ovaries; assay: Free cholesterol, FF-MAS and progesterone in ovaries of gonadotrophin primed prepubertal mice (HPLC); format: in vivo; conditions: ovary, 6 h after hCG
Procedure: The other half (control mice) were injected a similar volume of PBS. […] Ovaries were isolated pair-wise, weighed, freeze-dried, weighed again and subsequently extracted in 1.0 ml (v/v) 75% n-heptane: 25% isopropanol. The organic extract was re-constituted in mobilphase for HPLC straight-phase (SP) separation (ChromSpherSi, 5 μm, 250×4.6 mm HPLC column, running in (v/v) 99.5% n-heptane (Fischer, Leicestershire, U.K.): 0.5% isopropanol (Baker, NL) at 1.00 ml/min.). Eluted material was detected by ultraviolet light absorption between 200-300 nm. Prior to the HPLC analysis a standard mixture containing cholesterol, FF-MAS and progesterone (P4) was run three times in order to confirm the stability of response factors for standards. Standards for cholesterol (Steraloids […]) and P4 (Sigma P-0130) were obtained commercially whereas the FF-MAS standards used was produced in the laboratory as described before (Baltsen et al., 1999). All standard curves were linear in the range of all sample values.

Substance | inhibition of cholesterol de novo biosynthesis (3H from acetic acid in free cholesterol) [1] | cumulus expansion after the IVM culture period [2] | Control/hCG scintillation ratio, 5,7-ene (mouse ovaries; 5 IU/ml hCG, 22 hours) | Control/hCG scintillation ratio, Cholesterol (mouse ovaries; 5 IU/ml hCG, 22 hours) | Control/hCG scintillation ratio, Desmosterol (mouse ovaries; 5 IU/ml hCG, 22 hours) | Control/hCG scintillation ratio, FF-MAS (mouse ovaries; 5 IU/ml hCG, 22 hours) | Control/hCG scintillation ratio, Lanosterol (mouse ovaries; 5 IU/ml hCG, 22 hours) | Control/hCG scintillation ratio, Progesterone (mouse ovaries; 5 IU/ml hCG, 22 hours) | Control/hCG scintillation ratio, Squalene (mouse ovaries; 5 IU/ml hCG, 22 hours) | Control/hCG scintillation ratio, T-MAS (mouse ovaries; 5 IU/ml hCG, 22 hours) | de novo biosynthesis of cholesterol in mouse ovaries (mouse ovaries; following hCG treatment) | FF-MAS [3] | P4 (progesterone) [3]
FSH: recombinant human follicular stimulating hormone (Gonal-F, Serono) | less effective | intermediate |  |  |  |  |  |  |  |  |  |  | 
hCG: human chorion gonadotrophin (Ferring), ovulatory trigger |  |  | 35 ± 4% | 226 ± 39% | 58 ± 7% | 72 ± 16% | 22 ± 7% | 13 ± 5% | 80 ± 9% | 43 ± 50% | decreases | 3.0 ± 0.5 B μg/g wet w. | 13.0 ± 0.5 A μg/g wet w.
